pIC50: −log10 of the molar value.

By UniProt entry, the sequences of proteins in these tests, tags left out.
UniProt P42336, whole entry, looked up: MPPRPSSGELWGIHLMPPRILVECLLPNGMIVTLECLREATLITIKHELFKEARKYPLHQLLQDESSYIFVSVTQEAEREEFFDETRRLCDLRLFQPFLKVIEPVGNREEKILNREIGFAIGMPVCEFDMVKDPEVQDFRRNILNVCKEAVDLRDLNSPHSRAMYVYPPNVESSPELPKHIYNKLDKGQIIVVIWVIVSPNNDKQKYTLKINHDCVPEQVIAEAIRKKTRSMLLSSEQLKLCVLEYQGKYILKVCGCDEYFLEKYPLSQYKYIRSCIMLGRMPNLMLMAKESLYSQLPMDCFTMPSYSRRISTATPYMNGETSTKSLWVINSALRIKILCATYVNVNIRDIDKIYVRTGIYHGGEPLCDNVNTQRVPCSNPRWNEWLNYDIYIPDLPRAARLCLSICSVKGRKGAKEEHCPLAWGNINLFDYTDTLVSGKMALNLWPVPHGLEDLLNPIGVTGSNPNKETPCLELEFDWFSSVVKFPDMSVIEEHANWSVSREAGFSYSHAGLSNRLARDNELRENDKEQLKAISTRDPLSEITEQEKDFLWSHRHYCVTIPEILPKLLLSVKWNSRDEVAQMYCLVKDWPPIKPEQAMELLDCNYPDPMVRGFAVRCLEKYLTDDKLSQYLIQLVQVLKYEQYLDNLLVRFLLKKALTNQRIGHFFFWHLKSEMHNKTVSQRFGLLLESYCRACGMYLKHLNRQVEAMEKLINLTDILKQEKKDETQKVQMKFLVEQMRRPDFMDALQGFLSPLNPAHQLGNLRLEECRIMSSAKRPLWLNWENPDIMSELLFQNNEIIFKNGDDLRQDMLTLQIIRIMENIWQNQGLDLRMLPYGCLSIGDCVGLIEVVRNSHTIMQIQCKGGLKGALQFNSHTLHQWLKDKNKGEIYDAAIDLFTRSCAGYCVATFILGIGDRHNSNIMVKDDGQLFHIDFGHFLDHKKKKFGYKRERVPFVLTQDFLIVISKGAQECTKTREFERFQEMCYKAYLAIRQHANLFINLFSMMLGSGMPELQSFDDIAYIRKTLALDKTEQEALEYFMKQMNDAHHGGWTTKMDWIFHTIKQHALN

Assay [1] has as its target T1, PI3Kα (Homo sapiens (Human), UniProt P42336). To be noted: literature; cited from earlier work.
In assay [2] the target is T1, PI3Kα. Briefly: PI3K inhibition assay (PI3 Kinase activity/inhibitor assay kit), PI3Kα. Format: biochemical. To be noted: read-out: IC50 against PI3Kα. Here is the method:
PI3K inhibition assay (PI3K Assay (Emmanuelle M, Huang […] et al. Targeting Protein Translation in Human Non-Small Cell Lung Cancer via Combined MEK and Mammalian Target of Rapamycin Suppression. Cancer Res 67:(23). (2007).) was carried out by PI3 Kinase activity/inhibitor assay kit, where PI3 kinase reaction was set up in Glutathione-coated strips/plate for inhibitor reaction. Kinase and inhibitors were pre-incubated for 10 minutes prior to the addition of PIP2 substrate. 5 μL of 5× kinase reaction buffer were added in each well followed by the further addition of 5 μL/well of PIP2 substrate. Then distilled H2O was added to each well so as to make up a final volume of 25 μL/well. Incubation was done at rt for 1 hour which was followed by washing the wells 3 times with 200 μL of 1×TBST per well and then 2 times with 200 μL of IX TBS per well. Then 100 μL of the Substrate TMB per well was added and then to keep for colour development in the dark for 5-20 minutes. However, appearance of the blue color to avoid over-development were monitored. 100 μL of the stop solution per well was used to stop the reaction. Readings were recorded at 450 nm. The IC50 value of a drug measures the effectiveness of a compound in inhibiting biological or biochemical function. […]

Take Liphagal: at PI3Kα [1], the “potency against PI3K-α relative to PI3K-γ” value was approximately 10 fold. Moreover, the negative logarithm of the IC50 (pIC50) on PI3Kα [2] was 6.97.

(Values after US9206201B2, “Boronic acid bearing liphagane compounds as inhibitors of P13K-α and/or β” (COUNCIL OF SCIENTIFIC & INDUSTRIAL RESEARCH, priority 2012, dated 2015).)
